Patent publication US9782411B2, “{4-[5-(3-chloro-phenoxy)-oxazolo[5,4-d]pyrimidin-2-yl]-2,6-dimethyl-phenoxy}-acetic acid for use in the prevention or treatment of acute kidney injury” (Sanofi, priority 2013, dated 2017)

Chains of the proteins cited; added tags and fusions are not shown.
UniProt P21453, whole entry: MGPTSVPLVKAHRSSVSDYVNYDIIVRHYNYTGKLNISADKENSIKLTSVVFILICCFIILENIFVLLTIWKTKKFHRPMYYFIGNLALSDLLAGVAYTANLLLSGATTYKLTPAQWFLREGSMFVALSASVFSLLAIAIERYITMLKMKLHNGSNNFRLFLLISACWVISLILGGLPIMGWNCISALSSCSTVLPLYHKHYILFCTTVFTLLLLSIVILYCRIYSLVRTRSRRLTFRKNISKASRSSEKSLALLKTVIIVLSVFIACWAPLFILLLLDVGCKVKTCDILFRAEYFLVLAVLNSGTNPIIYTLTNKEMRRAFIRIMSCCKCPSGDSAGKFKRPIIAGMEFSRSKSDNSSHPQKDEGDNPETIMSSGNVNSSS

Tests used:
[1] = biological target: T1, S1P1 (Homo sapiens, UniProt P21453); assay: FLIPR calcium assay, ChemiScreen cells (GPCRProfiler, Millipore); assay type: cell-based; conditions: ChemiScreen cells over-expressing human S1P1; 0% proteins in assay media; read-out: EC50, FLIPR, Chem cells
Text: The GPCRProfiler® assay from Millipore was used to determine the EC50 activity of compound A, BAF-312 and fingolimod on S1P1, S1P2, S1P3, S1P4 or S1P5 receptors. These assays used ChemiScreen GPCR stable cell lines.

[2] = biological target: T2, hS1P1-G-fusion (Homo sapiens, UniProt P21453); assay: Calcium mobilization (FlipR) assay in CHO cells; assay type: cell-based; conditions: CHO over-expressing human S1P1 (G-fusion); 0% proteins in assay media
T2 construct: fused on or other part: Modified G-protein alpha subunit (G alpha i4qi4) fused to the receptor's C-terminus to force coupling to calcium release

[3] = biological target: T1, S1P1; assay: cAMP HTRF assay in forskolin-treated HUVEC; assay type: cell-based; set-up: host or cells: HUVEC (primary); conditions: 0.1% BSA
Protocol: Cyclic AMP in response to compound A, BAF-312 or fingolimod was assessed in Forskolin-treated HUVEC cells by the mean of the cAMP HTRF® kit (Cisbio). Briefly, HUVEC (Lonza) were seeded at 5×10^3 cells per well into a white 96 multiwell plate (half volume) for 24 hours in EGM2 medium (Lonza). At the beginning of the experiment, EGM2 medium was replaced by assay buffer consisting in HBSS containing Hepes (10 mM), BSA (0.1%) and IBMX (0.5 mM). Cells were allowed to recover during 15 min. Compound A, BAF-312 or fingolimod (10 nM-100 μM) were added to the cells for 15 min followed by addition of forskolin (FSK, 10 μM). After 45 min of FSK treatment, reaction was stopped by addition of MAb anti-cAMP-cryptate and cAMP-D2 for 1 hour. At the end of the incubation, fluorescence was read (Envision, Perkin Elmer) and FRET ratio calculated according to assay kit protocol. The potency of compound A, BAF-312 or fingolimod (EC50) was calculated using the Sanofi BIOST@T-SPEED software according to the logistic equation model.

[4] = biological target: T1, S1P1; assay: Impedance assay in HUVEC; assay type: cell-based; set-up: host or cells: HUVEC (primary); conditions: 2% FBS
Protocol: On day 1, primary cells were seeded into 96-well e-plates pre-coated with collagen-I with 20,000 cells per well. […] After incubation with the S1PR agonists, the cells were carefully washed twice with medium followed by a 5.5 h recovery period. Then the effect of the preceding 1st stimulation on receptor desensitization was assessed using a 2nd stimulation of increasing S1P concentrations (0.1, 1 and 10 μM) and measuring the resulting impedance. All measurements were done at least in triplicates. […] Results are expressed in arbitrary impedance unit as mean+/−s.e.m.

[5] = biological target: T1, S1P1; assay: GTPγS assay, CHO; assay type: biochemical; set-up: host or cells: CHO (PathHunter); conditions: 0% proteins in assay media
[6] = biological target: T1, S1P1; assay: PathHunter β-arrestin assay, CHO; assay type: cell-based; set-up: host or cells: CHO (PathHunter); conditions: 0.5% FBS; starred values are means of 2 separate experiments
Protocol: The PathHunter® β-Arrestin Assay from DiscoverX was used to determine the EC50 activity of compound A, BAF-312 and fingolimod on S1P1, S1P2, S1P3, S1P4 or S1P5 receptors. The compounds were tested in assay medium containing 0.5% FBS.

[7] = biological target: T1, S1P1; assay: PathHunter activated GPCR internalization assay, CHO; assay type: cell-based; set-up: host or cells: CHO (PathHunter); conditions: 0.5% FBS; starred values are means of 2 separate experiments
Protocol: The PathHunter® Activated GPCR Internalization Assay from DiscoverX was used to determine the EC50 activity of compound A, BAF-312 and fingolimod on the S1P1 receptor. The compounds were tested in assay medium containing 0.5% FBS.

Fingolimod phosphate
EC50 [1]: 26 nM | EC50 [2]: 0.14 nM | EC50 [3]: 132 nM | EC50 [4]: 0.12 nM | EC50 [5]: 5 nM | EC50 [6]: 7 nM | EC50 [7]: 2.72 nM
